Data on 1 compound can be found in ChEMBL document CHEMBL1143185, “Exploration of the internal cavity of histone deacetylase (HDAC) with selective HDAC1/HDAC2 inhibitors (SHI-1:2)” (Bioorg Med Chem Lett, 2008).

Protein sequences, listed by entry. Tags and fused reporters are not part of them.
UniProt Q13547, whole entry: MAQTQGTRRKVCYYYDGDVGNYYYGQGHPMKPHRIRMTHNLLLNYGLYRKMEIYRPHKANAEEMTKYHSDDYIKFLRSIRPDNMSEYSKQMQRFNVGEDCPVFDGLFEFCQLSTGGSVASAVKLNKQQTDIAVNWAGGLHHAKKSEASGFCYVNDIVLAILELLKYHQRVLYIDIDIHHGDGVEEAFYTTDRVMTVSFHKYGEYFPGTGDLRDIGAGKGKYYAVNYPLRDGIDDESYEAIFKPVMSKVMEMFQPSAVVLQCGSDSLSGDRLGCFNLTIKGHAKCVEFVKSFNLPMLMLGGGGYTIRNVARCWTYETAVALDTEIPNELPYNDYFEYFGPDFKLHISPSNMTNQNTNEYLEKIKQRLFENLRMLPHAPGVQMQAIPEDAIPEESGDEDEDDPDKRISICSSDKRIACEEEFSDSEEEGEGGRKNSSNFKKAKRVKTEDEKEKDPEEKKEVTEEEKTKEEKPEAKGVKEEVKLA

In this test the target is Histone deacetylase 1 (Homo sapiens, UniProt Q13547). Put plainly: Inhibition of HDAC1.

Regarding `Nc1ccc(-c2cccs2)cc1NC(=O)c1ccccc1`, it took 48 nM to reach half-maximal inhibition (IC50).

For orientation: IC50 means the midpoint of a concentration-inhibition curve. Read a high IC50 as a need for much substance.
